pIC50: −log10 of the molar value.
Target: Protein farnesyltransferase (Rattus norvegicus, UniProt Q04631+Q02293)
Assay: In vitro inhibition of Farnesyltransferase (FT) by using FT [3H]-SPA kit.
Format: protein-complex assay

Sequences of proteins named here, by UniProt entry; tags and fusion partners are left off.
UniProt Q02293, whole entry, looked up: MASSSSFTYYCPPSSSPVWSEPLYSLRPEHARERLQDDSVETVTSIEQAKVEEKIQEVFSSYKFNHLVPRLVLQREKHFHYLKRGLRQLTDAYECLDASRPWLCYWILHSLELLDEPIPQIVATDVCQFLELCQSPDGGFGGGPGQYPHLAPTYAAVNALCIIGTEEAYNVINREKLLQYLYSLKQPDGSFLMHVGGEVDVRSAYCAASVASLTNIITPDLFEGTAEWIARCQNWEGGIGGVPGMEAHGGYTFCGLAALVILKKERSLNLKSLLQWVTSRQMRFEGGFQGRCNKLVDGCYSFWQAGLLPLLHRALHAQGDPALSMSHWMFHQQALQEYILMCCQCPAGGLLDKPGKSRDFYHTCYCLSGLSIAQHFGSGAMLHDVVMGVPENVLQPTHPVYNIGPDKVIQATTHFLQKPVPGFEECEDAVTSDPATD

SMILES	pIC50
NC(=O)c1cc([N+](=O)[O-])cc2c1-c1c(cc([N+](=O)[O-])cc1[N+](=O)[O-])C2=O	4.10
O=[N+]([O-])c1ccc(O)c(C=C2c3cc([N+](=O)[O-])cc([N+](=O)[O-])c3-c3c2cc([N+](=O)[O-])cc3[N+](=O)[O-])c1	4.00

From ChEMBL document CHEMBL1133580, “Successful virtual screening of a chemical database for farnesyltransferase inhibitor leads” (J Med Chem, 2000)
